ChEMBL document CHEMBL1799934, “Irreversible Nek2 kinase inhibitors with cellular activity” (J Med Chem, 2011)

By UniProt entry, the sequences of proteins in these tests, tags left out.
UniProt P06493, whole entry: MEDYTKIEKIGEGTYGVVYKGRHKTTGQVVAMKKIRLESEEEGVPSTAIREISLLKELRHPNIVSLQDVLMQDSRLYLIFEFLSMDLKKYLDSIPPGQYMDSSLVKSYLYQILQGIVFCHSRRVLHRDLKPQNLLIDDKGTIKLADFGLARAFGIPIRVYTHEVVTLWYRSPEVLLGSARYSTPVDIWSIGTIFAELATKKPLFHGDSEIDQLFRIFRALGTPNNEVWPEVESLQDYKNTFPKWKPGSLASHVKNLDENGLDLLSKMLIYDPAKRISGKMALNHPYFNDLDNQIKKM

Assays:
[1] = molecular target: T1, Serine/threonine-protein kinase Nek2 (Homo sapiens, UniProt P51955); experiment: Inhibition of human Nek2 in using [gamma-32P] ATP
T1 sequence (P51955 whole entry): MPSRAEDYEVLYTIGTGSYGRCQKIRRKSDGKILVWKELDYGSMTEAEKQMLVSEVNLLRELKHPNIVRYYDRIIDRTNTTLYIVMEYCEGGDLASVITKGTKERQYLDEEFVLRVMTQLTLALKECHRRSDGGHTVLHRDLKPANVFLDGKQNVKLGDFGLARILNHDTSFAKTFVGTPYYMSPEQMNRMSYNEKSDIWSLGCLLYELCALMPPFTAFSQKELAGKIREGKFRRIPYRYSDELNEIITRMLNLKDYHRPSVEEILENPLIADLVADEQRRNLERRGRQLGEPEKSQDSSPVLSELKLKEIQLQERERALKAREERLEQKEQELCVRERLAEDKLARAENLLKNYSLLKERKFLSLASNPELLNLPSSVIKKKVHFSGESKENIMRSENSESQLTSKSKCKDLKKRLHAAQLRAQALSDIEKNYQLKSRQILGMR

[2] = molecular target: Cyclin-dependent kinase 1/cyclin B1 (Homo sapiens, UniProt P06493); experiment: Inhibition of human Cdk1/cyclinB using histone H1 as a substrate and [gamma-32P]ATP; type: protein-complex assay
Outline: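 Cdk1/cyclin B (2 nM) pre-incubated 30 min at room temperature with inhibitor in HEPES pH 7.5, MgCl2, EDTA, BSA, 3% DMSO, 38 μM ATP. Kinase reaction started with 0.2 mg/mL histone H1 plus 4 μCi [γ-32P]ATP and run 30 min at room temperature. Spotted onto nitrocellulose for radioactive read-out. IC50 is the mean of three determinations; the pre-incubation time was held fixed.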

A549 = experiment: Antimitotic activity in monastrol-arrested human A549 cells assessed as cells that exit mitosis arrest at 5 uM after 45 mins by immunofluorescence microscopic analysis; type: functional
Outline: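 A549 cells grown on poly-lysine coverslips for 24 h, arrested with 100 μM monastrol for 18 h, then exposed to 5 μM inhibitor with monastrol still present for 45 min. Cells fixed and immunostained for phospho-Ser10 histone H3, chromatin and tubulin. Percentage of cells that exited mitosis scored by microscopy, >75 cells counted per condition.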

Row | Structure (SMILES) | IC50 [1] [µM] | IC50 [2] [µM] | Activity (A549) [%]
1 | CCc1nc(C)c(/C=C2\C(=O)N(C)c3ccc(C(=O)CCl)cc32)[nH]1.Cl | 4.9 | > 20 | 
2 | C#CC(=O)Nc1ccc2c(c1)/C(=C/c1[nH]c(CC)nc1C)C(=O)N2 |  |  | 4
